Assay results published in EP2459571B1, “NITROIMIDAZOOXAZINES AND THEIR USES IN ANTI-[…]” (priority 2009, dated 2011).

Assays:
[1] = Stability to mouse liver microsomes; format: in vitro ADME, CD-1 mouse; conditions: pH 7.4, 37 °C, 0.5 mg/mL protein, NADPH regenerating system, 60 min
[2] = Stability to human liver microsomes; format: in vitro ADME; conditions: pH 7.4, 37 °C, 0.5 mg/mL protein, NADPH regenerating system, 60 min

O=[N+]([O-])c1cn2c(n1)OC[C@@H](OCc1ccc(C#Cc3ccc(OC(F)(F)F)cc3)cn1)C2 [compound 18, (6S)-2-Nitro-6-[(5-{[4-(trifluoromethoxy)phenyl]ethynyl}-2-pyridinyl)methoxy]-6,7-dihydro-5H-imidazo[2,1-b][1,3]oxazine]
remaining at 1 h, 1 µM [1]: 97% | remaining at 1 h, 1 µM [2]: 98%
